Literature values, collected in patent US6921545B2 (priority 2001, dated 2005).

Tested on: insect eggs
Settings: from DE 197 09 914; cited from earlier work

hydrogen phosphide
minimum concentration for achieving an ovicidal action: 50 ppm
